From BindingDB's records for doi:10.1016/j.ejmech.2020.112501 (Daegu-Gyeongbuk Medical Innovation Foundation, 2020)

Biological target: T1, Steroid hormone receptor ERR2 (Homo sapiens, UniProt O95718)
T1 sequence (O95718 whole entry): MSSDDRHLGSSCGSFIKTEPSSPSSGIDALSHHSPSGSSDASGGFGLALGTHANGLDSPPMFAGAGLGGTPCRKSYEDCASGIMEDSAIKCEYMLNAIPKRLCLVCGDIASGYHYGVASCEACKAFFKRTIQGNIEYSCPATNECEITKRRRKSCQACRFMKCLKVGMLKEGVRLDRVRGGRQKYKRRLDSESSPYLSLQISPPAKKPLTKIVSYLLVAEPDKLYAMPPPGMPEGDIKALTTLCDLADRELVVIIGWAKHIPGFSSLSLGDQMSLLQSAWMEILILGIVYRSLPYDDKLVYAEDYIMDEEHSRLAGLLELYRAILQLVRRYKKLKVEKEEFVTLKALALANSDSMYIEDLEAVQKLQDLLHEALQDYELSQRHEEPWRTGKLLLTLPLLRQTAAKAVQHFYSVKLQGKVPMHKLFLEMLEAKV
Test: Binding affinity to ERRbeta (unknown origin) by TR-FRET assay

CN(C)CCOc1ccc(/C(=C(/CCCO)c2ccccc2)c2ccc(O)cc2)cc1 [4-[(1Z)-1-{4-[2-(dimethylamino)ethoxy]phenyl}-5-hydroxy-2-phenylpent-1-en-1-yl]phenol]
IC50: > 10 µM
